Experimental data: article PMC5604227 (Biochemistry, 2016)

By UniProt entry, the sequences of proteins in these tests, tags left out.
UniProt P0A884, whole entry C146S: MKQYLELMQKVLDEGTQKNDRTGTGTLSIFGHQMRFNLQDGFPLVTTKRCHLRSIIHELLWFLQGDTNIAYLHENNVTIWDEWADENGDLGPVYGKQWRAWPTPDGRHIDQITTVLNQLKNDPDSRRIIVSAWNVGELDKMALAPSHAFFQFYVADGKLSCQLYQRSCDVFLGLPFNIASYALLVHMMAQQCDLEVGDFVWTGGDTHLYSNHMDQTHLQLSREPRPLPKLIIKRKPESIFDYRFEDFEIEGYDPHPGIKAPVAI

Target: C146S-dUMP complex (Escherichia coli, UniProt P0A884, C146S)
Assay: biochemical
Type: binding, E. coli

Cc1nc2ccc(CN(C)c3ccc(C(=O)N[C@@H](CCC(=O)O)C(=O)O)s3)cc2c(=O)[nH]1 [Raltitrexed]
Kd: ~500 nM
